# Measurements: US20250221947A1, “METHODS FOR TREATING A CORONAVIRUS INFECTION USING VALPROIC ACID AND DOCOSAHEXAENOIC ACID” (priority 2024, published 2025)
# Assay: Serum VPA levels in a national data set (LabCorp)
# Details: June 2021
smiles,measurement,value
"CCCC(CCC)C(=O)O [VPA, valproic acid]",share of patients with a serum level of 80 μg/mL (~0.55 mM),< 25%
